Biological target: human ENT1 transporter (Homo sapiens, UniProt Q99808)
Experiment: hENT1-NBMPR-ERYTH binding assay ([3H]NBMPR, human erythrocytes)
Conditions: [3H]NBMPR 1 nM, washed human red blood cells 1:200, 30 minutes at room temperature; pIC50=-log(IC50)

By UniProt entry, the sequences of proteins in these tests, tags left out.
UniProt Q99808, whole entry: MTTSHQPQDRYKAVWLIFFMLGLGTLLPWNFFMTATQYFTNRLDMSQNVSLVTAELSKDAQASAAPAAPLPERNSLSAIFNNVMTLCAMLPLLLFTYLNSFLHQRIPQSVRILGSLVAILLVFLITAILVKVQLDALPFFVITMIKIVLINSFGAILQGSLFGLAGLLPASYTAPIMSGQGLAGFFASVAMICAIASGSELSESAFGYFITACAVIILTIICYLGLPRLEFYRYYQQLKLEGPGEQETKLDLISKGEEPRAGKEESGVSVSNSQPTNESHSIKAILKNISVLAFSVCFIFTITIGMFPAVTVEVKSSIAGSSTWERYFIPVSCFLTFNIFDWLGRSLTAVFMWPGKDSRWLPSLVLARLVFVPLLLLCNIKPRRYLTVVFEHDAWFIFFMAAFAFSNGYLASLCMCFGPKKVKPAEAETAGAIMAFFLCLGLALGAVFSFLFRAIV

Compound	pIC50 values for ENT1 transporter inhibition
Cc1cccc(C)c1C(=O)NCCN1CCC2(CC1)CC(=O)c1cc(Cl)c(NCC3CCCC3)cc1O2	8.42
Cc1cc(N)c2c(c1)C(=O)NC1(CCN(CCNC(=O)c3c(C)cccc3C)CC1)O2	5.42
Cc1cccc(C)c1C(=O)NCCN1CCC2(CC1)CC(=O)c1cc(Cl)c(NCCCO)cc1O2	7.91
Cc1cc(NC(C)C)c2c(c1)C(=O)NC1(CCN(CCNC(=O)c3c(C)cccc3C)CC1)O2	7.21
COc1ccc2c(c1)OC1(CCN(CCNC(=O)c3c(Cl)cccc3Cl)CC1)CC2=O	7.05
CC(=O)N1CCC(Oc2cc3c(cc2Cl)C(O)CC2(CCN(CCNC(=O)c4c(Cl)cccc4Cl)CC2)O3)CC1 (single isomer, unassigned) [105]	7.87
CC(=O)N1CCC(Oc2cc(Cl)cc3c2OC2(CCN(CCNC(=O)c4c(C)cccc4C)CC2)NC3=O)CC1	6.22
CC(C)Oc1cc(Cl)cc2c1OC1(CCN(CCNC(=O)c3c(Cl)cccc3Cl)CC1)CC2=O	7.945
Cc1c(OCc2ccccc2)ccc2c1OC1(CCN(CCNC(=O)c3c(Cl)cccc3Cl)CC1)CC2=O	8.94
COCCCNc1cc2c(cc1Cl)C=CC1(CCN(CCNC(=O)c3c(Cl)cccc3Cl)CC1)O2	9.33
CNc1cc(C)cc2c1OC1(CCN(CCNC(=O)c3c(Cl)cccc3Cl)CC1)CC2=O	7.91
O=C1CC2(CCN(CCNC(=O)c3c(Cl)cccc3Cl)CC2)Oc2ccc(F)cc21	6.81
Cc1cccc(C)c1C(=O)NCCN1CCC2(CC1)NC(=O)c1ccc(N3CCOCC3)c(Cl)c1O2	6.98
COc1cc2c(cc1OC)C(=O)CC1(CCN(CCNC(=O)c3c(Cl)cccc3Cl)CC1)O2	6.19
CC(=O)N1CCC(Oc2cc(Cl)cc3c2OC2(CCN(CCNC(=O)c4c(Cl)cccc4Cl)CC2)CC3=O)CC1	7.73
COCCCNc1cc2c(cc1Cl)C(=O)CC1(CCN(CCNC(=O)c3c(C)cccc3C)CC1)O2	8.43
Cc1cccc(C)c1C(=O)NCCN1CCC2(CC1)NC(=O)c1ccc(NCCCO)c(Cl)c1O2	7.32
CC(=O)N1CCC(Nc2cc3c(cc2Cl)C(=O)CC2(CCN(CCNC(=O)c4c(C)cccc4C)CC2)O3)CC1	7.65
CC(=O)N1CCC(Oc2cc(C)cc3c2OC2(CCN(CCNC(=O)c4c(Cl)cccc4Cl)CC2)CC3=O)CC1	7.925

Now from value to compound:

pIC50 values for ENT1 transporter inhibition	Compound
7.72	CC(C)Oc1cc(Cl)cc2c1OC1(CCN(CCNC(=O)c3c(Cl)cccc3Cl)CC1)NC2=O
8.06	CC(=O)N1CCC(Oc2ccc3c(c2Cl)OC2(CCN(CCNC(=O)c4c(Cl)cccc4Cl)CC2)NC3=O)CC1
8.025	CC(C)Oc1ccc2c(c1Cl)OC1(CCN(CCNC(=O)c3c(Cl)cccc3Cl)CC1)NC2=O
8.80	O=C1NC2(CCN(CCNC(=O)c3c(Cl)cccc3Cl)CC2)Oc2cc(OC3CCCC3)ccc21
8.11	CC(=O)NCCCNc1cc2c(cc1Cl)C(=O)NC1(CCN(CCNC(=O)c3c(Cl)cccc3Cl)CC1)O2
7.54	Nc1cc(Cl)cc2c1OC1(CCN(CCNC(=O)c3c(Cl)cccc3Cl)CC1)CC2=O
9.00	O=C1NC2(CCN(CCNC(=O)c3c(Cl)cccc3Cl)CC2)Oc2cc(NC3CCCC3)c(Cl)cc21
7.39	CNc1cc(Cl)cc2c1OC1(CCN(CCNC(=O)c3c(Cl)cccc3Cl)CC1)NC2=O
7.18	CNc1cc(C)cc2c1OC1(CCN(CCNC(=O)c3c(Cl)cccc3Cl)CC1)NC2=O
9.22	CC(=O)N1CCC(Oc2cc3c(cc2C)C(=O)CC2(CCN(CCNC(=O)c4c(Cl)cccc4Cl)CC2)O3)CC1
7.18	Cc1cccc(C)c1C(=O)NCCN1CCC2(CC1)NC(=O)c1cc(Cl)c(NC3CCOCC3)cc1O2
8.48	O=C1NC2(CCN(CCNC(=O)c3c(Cl)cccc3Cl)CC2)Oc2cc(NC3CCOCC3)c(Cl)cc21
8.44	O=C1NC2(CCN(CCNC(=O)c3c(Cl)cccc3Cl)CC2)Oc2c(NC3CCOCC3)cc(Cl)cc21
7.80	O=C1NC2(CCN(CCNC(=O)c3c(Cl)cccc3Cl)CC2)Oc2cc(N3CCNCC3)c(Cl)cc21
6.90	Cc1cc2c(cc1N)OC1(CCN(CCNC(=O)c3c(Cl)cccc3Cl)CC1)CC2=O
9.17	O=C1CC2(CCN(CCNC(=O)c3c(Cl)cccc3Cl)CC2)Oc2cc(NCCCO)c(Cl)cc21
8.405	Cc1cc2c(cc1NC(=O)C1CCCC1)OC1(CCN(CCNC(=O)c3c(Cl)cccc3Cl)CC1)CC2=O
6.68	Cc1cccc(C)c1C(=O)NCCN1CCC2(CC1)NC(=O)c1ccc(NC3CCOCC3)c(Cl)c1O2
7.675	COCCCNc1cc(C)cc2c1OC1(CCN(CCNC(=O)c3c(Cl)cccc3Cl)CC1)NC2=O
7.24	CC(=O)Nc1cc2c(cc1C)C(=O)CC1(CCN(CCNC(=O)c3c(Cl)cccc3Cl)CC1)O2
6.91	Cc1cccc(C)c1C(=O)NCCN1CCC2(CC1)NC(=O)c1cc(Cl)c(OC3CCNCC3)cc1O2
8.375	CC(=O)N1CCC(Nc2cc(C)cc3c2OC2(CCN(CCNC(=O)c4c(Cl)cccc4Cl)CC2)NC3=O)CC1
6.08	O=C1NC2(CCN(CCNC(=O)c3c(Cl)cccc3Cl)CC2)Oc2cc(O)c(Cl)cc21

— patent US8263592B2, “Equilibrative nucleoside transporter ENT1 inhibitors” (Janssen Pharmaceutica NV, priority 2007, dated 2012)
